This note sets out measurements from ChEMBL document CHEMBL5705888, “Substrate specificity and inhibitors of LRRK2, a protein kinase mutated in Parkinson's disease” (Biochem J, 2009).

By UniProt entry, the sequences of proteins in these tests, tags left out.
UniProt Q5S007, whole entry G2019S: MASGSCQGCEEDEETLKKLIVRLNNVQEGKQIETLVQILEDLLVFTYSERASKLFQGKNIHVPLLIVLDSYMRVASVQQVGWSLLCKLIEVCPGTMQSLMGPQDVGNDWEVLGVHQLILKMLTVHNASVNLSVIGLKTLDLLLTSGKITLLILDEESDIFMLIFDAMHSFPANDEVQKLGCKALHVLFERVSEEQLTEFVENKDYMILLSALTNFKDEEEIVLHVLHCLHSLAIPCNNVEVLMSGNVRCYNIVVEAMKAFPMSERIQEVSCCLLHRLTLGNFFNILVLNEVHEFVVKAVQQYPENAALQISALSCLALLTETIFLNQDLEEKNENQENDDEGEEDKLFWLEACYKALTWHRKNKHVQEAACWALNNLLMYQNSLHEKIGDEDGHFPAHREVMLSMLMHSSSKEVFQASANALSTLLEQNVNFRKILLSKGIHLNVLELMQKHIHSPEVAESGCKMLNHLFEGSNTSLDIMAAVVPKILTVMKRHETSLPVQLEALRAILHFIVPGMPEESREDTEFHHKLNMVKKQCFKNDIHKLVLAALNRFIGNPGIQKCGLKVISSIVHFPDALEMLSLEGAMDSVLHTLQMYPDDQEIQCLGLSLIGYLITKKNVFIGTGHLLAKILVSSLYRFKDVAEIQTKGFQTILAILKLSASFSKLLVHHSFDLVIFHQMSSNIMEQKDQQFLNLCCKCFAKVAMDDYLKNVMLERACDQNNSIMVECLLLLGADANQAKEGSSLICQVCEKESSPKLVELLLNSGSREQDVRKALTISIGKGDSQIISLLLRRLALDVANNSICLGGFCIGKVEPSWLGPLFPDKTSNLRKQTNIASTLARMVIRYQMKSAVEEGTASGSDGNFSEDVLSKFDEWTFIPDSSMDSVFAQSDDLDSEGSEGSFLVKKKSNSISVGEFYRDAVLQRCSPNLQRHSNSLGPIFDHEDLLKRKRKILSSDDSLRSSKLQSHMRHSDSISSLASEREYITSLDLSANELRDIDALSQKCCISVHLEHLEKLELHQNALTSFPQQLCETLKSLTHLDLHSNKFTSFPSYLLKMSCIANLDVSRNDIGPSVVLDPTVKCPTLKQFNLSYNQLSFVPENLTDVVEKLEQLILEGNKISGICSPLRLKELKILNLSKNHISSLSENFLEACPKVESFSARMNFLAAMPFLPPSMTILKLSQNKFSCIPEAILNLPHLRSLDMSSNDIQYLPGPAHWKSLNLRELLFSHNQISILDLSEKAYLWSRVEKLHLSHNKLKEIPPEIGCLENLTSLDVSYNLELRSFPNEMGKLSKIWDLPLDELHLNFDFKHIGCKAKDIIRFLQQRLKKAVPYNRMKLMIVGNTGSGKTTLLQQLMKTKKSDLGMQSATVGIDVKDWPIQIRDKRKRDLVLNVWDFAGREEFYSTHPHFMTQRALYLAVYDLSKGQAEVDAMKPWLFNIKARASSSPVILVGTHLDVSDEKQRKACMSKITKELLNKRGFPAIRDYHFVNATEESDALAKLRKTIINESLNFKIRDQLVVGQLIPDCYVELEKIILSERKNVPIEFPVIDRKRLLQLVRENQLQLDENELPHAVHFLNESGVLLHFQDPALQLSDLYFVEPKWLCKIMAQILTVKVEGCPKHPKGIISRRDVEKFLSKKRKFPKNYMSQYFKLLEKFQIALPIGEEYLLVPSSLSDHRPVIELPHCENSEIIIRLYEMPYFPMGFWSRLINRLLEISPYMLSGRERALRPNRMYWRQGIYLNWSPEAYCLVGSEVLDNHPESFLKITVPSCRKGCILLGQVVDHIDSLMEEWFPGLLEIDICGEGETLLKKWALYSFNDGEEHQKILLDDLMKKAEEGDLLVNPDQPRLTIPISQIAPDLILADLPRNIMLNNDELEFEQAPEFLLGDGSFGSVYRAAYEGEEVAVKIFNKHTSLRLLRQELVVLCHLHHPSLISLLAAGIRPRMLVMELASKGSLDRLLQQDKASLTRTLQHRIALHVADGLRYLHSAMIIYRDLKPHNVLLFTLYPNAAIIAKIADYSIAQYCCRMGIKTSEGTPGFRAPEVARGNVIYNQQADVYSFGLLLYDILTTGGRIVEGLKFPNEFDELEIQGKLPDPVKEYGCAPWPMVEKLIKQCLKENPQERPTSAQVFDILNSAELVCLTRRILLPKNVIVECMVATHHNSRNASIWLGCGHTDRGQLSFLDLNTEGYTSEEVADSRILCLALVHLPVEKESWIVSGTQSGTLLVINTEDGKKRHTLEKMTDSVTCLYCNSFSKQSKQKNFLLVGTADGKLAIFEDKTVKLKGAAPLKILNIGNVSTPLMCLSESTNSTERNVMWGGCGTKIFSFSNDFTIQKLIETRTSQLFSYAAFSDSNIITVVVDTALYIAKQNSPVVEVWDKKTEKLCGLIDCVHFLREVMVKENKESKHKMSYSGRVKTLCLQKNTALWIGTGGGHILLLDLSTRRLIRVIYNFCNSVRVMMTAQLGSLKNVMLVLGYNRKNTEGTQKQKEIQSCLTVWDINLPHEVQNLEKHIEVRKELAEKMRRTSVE

A word on the inhibition: it is the percentage by which the read-out fell short of the control.

For experiment [1], the system named is Leucine-rich repeat serine/threonine-protein kinase 2 (Homo sapiens), Q5S007 [G2019S]. The experiment can be described thus: Inhibition of LRRK2 G2019S mutant (unknown origin) at 0.1 uM incubated for 30 mins in presence of [gamma-33P]ATP by multidrop micro reagent based assay relative to control.
Experiment [2] has as its target Leucine-rich repeat serine/threonine-protein kinase 2 (Homo sapiens, UniProt Q5S007). The experiment can be described thus: Inhibition of LRRK2 (unknown origin) at 0.1 uM incubated for 30 mins in presence of [gamma-33P]ATP by multidrop micro reagent based assay relative to control.

On to `CCN(CC)CCNC(=O)c1c(C)[nH]c(/C=C2\C(=O)Nc3ccc(F)cc32)c1C`, for which the inhibition was determined as 14% in experiment [1] and 42% in experiment [2].
